Assay results taken from publication PMC10291549, “Reaction Behavior of [1,3-Diethyl-4,5-diphenyl-1H-imidazol-2-ylidene] Containing Gold(I/III) Complexes against Ingredients of the Cell Culture Medium and the Meaning on the Potential Use for Cancer Eradication Therapy” (Journal of Medicinal Chemistry, 2023).

Test: FCS influence on stability of 7 in RPMI 1640 (protein binding, HPLC)
Type: in vitro ADME
Conditions: 7 (30 μM) in RPMI 1640 + 10% FCS, 4 h, 37 °C, dark; protein precipitation with ACN; from HPLC peak areas
Method: The complex (conc. 30 μM) dissolved in RPMI 1640 medium supplemented with 10% FCS was incubated for 4 h at 37 °C in the dark. Subsequently, the proteins were precipitated with ACN and the supernatant was dried by lyophilization. The remaining complexes were extracted from the lyophilizate with DCM. The organic layer was evaporated, and the residue was finally dissolved in 1 mL of ACN. This solution was then analyzed by HPLC as described above.
To 11 mL of RPMI 1640 including 10% FCS, 11 μL of a freshly prepared 3 mM DMF solution of 7 was added. The solution was then incubated for 4 h at 37 °C in the dark. Proteins were precipitated with 33 mL of ACN. The mixture was cooled to −30 °C and stored for 2 h at −20 °C. Subsequently, the supernatant was separated by centrifugation (3000 rpm), collected, and dried by lyophilization. The lyophilizate was extracted three times with 5 mL of DCM and finally dried under reduced pressure. The residue was taken up in 1 mL of ACN, and 30 μL was analyzed by the HPLC method described above. Peak area was used for quantification. The calibrations of 5, 7, and 8 were obtained by injecting 30 μL of the respective solution of pure substances in ACN at a concentration of 1–30 μM (R^2 > 0.99).

Chlorido[1,3-diethyl-4,5-diphenyl-1H-imidazol-2-ylidene]gold(I) [Complex 5]
concentration in the free fraction after incubation of 7: 10.12 µM
